Measurements reported in US20050101618A1, “Selective erbB2 inhibitor/anti-erbB antibody combinations in the treatment of cancer” (Pfizer Inc, priority 2003, published 2005).

Assays:
[1] = system: BT-474 human breast adenocarcinoma; assay: BT-474 xenograft tumor growth inhibition in athymic female mice; assay type: in vivo; settings: for % Growth inhibition: 28 days
Description: The activity of the compounds of formula 1, in vivo, can be determined by the amount of inhibition of tumor growth by a test compound relative to a control. The tumor growth inhibitory effects of various compounds are measured according to the method of Corbett T. H., et al., “Tumor Induction Relationships in Development of Transplantable Cancers of the Colon in Mice for Chemotherapy Assays, with a Note on Carcinogen Structure”, Cancer Res., 35, 2434-2439 (1975) and Corbett T. H., et al., “A Mouse Colon-tumor Model for Experimental Therapy”, Cancer Chemother. Rep. (Part 2)”, 5, 169-186 (1975), with slight modifications. Tumors are induced in the left flank by subcutaneous (sc) injection of 5 million log phase cultured tumor cells (BT-474 human breast adenocarcinoma) suspended in Matrigel (1:1 in PBS). […] Rep., 3, 1-104 (1972). Results are expressed as percent inhibition, according to the formula: Inhibition (%)=(TuWcontrol−TuWtest)/TuWcontrol×100%. The flank site of tumor implantation provides reproducible dose/response effects for a variety of chemotherapeutic agents, and the method of measurement (tumor diameter) is a reliable method for assessing tumor growth rates.
Statistical Analysis: The statistical analysis of tumor growth was done using SAS Version 8, PROC GLM by Non-clinical statistical group.

[2] = Body weight and tolerability in BT-474 tumor-bearing mice
[3] = Herceptin 0.1 mg/kg IP twice weekly
[4] = Herceptin 0.3 mg/kg IP twice weekly

Herceptin: humanized monoclonal antibody that binds with high affinity to the extracellular domain of the protein-encoded by HER2
% Growth inhibition [1, 3]: 4% | % Growth inhibition [1, 4]: 24% | Tumor volume Day 28 [1, 3]: 391 ± 43 mm^3 | Tumor volume Day 28 [1, 4]: 308 ± 47 mm^3 | Average body weight Day 1 [2, 3]: (22) g | Average body weight Day 1 [2, 4]: (23) g | Average body weight Day 28 [2, 3]: (24) g | Average body weight Day 28 [2, 4]: (25) g | Tolerability, body weight loss, animal mortality ([2]; athymic mice, 28 days, all dose groups): well tolerated and there was no body weight loss or animal mortality
